Measured values taken from patent US9051591B2, “Bacterium of enterobacteriaceae family producing L-aspartic acid or L-aspartic acid-derived metabolites and a method for producing L-aspartic acid or L-aspartic acid-derived metabolites” (AJINOMOTO CO., INC., priority 2010, dated 2015).

Experiments:
[1] = target: T1, purified ADH (Polaromonas sp.) (Polaromonas sp., UniProt Q126F5); test: Screening of alternative substrates for purified ADH; conditions: 10 mM, […] NADH, 50 mM NH4Cl, 29° C.
T1 sequence (Q126F5 1-267): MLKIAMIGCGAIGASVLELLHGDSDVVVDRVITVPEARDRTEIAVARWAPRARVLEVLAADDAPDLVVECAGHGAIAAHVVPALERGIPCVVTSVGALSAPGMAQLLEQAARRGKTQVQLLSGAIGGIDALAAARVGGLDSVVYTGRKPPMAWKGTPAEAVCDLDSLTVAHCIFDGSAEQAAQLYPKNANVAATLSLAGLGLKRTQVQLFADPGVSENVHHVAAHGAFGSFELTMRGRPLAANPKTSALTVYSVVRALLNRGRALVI

[2] = target: T2, ADH (Polaromonas sp.) (Polaromonas sp., UniProt Q126F5); test: Screening of substrate specificity, ADH; conditions: relative to oxaloacetate; 20 mM substrate, […] NADH, pH 9
T2 sequence (Q126F5 1-267): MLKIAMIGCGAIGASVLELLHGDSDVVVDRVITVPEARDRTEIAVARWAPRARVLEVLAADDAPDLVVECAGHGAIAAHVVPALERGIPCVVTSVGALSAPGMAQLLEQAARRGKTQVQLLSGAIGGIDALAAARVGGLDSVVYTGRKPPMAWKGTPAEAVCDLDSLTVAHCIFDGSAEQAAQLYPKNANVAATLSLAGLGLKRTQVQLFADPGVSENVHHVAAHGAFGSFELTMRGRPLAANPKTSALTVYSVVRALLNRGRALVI

[3] = target: T3, Polaromonas sp. aspartate dehydrogenase (Polaromonas sp., UniProt Q126F5); test: Regulatory properties of the ADH; conditions: addition of 1 mM, 29° C., pH 9.8
T3 sequence (Q126F5 1-267): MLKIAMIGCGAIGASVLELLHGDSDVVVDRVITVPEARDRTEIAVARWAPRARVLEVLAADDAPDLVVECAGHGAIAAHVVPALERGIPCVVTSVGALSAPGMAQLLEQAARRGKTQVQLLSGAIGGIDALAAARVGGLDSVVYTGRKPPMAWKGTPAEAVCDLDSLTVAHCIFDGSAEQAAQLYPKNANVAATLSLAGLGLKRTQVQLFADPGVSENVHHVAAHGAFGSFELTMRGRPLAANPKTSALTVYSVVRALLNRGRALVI

[4] = substrate: NC(=O)c1ccc[n+]([C@@H]2O[C@H](COP(=O)([O-])OP(=O)(O)OC[C@H]3O[C@@H](n4cnc5c(N)ncnc54)[C@H](O)[C@@H]3O)[C@@H](O)[C@H]2O)c1; test: purified protein, by the assay type; conditions: other: Aspartic acid oxidative deamination; Michaelis-Menten plots
[5] = substrate: O=C(O)CC(=O)C(=O)O; test: purified protein, by the assay type; conditions: other: Oxaloacetate reductive amination; Michaelis-Menten plots

## O=C(O)CCC(=O)C(=O)O [α-ketoglutarate]
[1]
  ability to replace oxaloacetate in forward reaction: No activity
[2]
  Amination activity, ADH: na (no activity (<0.2%))
[3]
  effect on ADH activity in forward and reverse reactions: not significantly affected

B1: Polaromonas sp. ADH (Polaromonas sp. JS666) (protein)
chain: MLKIAMIGCGAIGASVLELLHGDSDVVVDRVITVPEARDRTEIAVARWAPRARVLEVLAADDAPDLVVECAGHGAIAAHVVPALERGIPCVVTSVGALSAPGMAQLLEQAARRGKTQVQLLSGAIGGIDALAAARVGGLDSVVYTGRKPPMAWKGTPAEAVCDLDSLTVAHCIFDGSAEQAAQLYPKNANVAATLSLAGLGLKRTQVQLFADPGVSENVHHVAAHGAFGSFELTMRGRPLAANPKTSALTVYSVVRALLNRGRALVI
[4]
  kcat/Km: 34700 ± 1000 M⁻¹ s⁻¹
[5]
  kcat/Km: 15000 ± 3330 M⁻¹ s⁻¹
